According to patent US10538496B2, “Methods using HDAC11 inhibitors” (FORMA Therapeutics, Inc., priority 2016, dated 2020):

Experiments:
HEL 92.1.7 cells [1] = test: Cell proliferation assay (CCK8); settings: 48h
A549 cells [2] = test: Cell proliferation assay with combination treatment (MTT); settings: A549, combination with GDC-0449 (Vismodegib) or BMS-833923, 96 hours
NCI-H2170 cells = test: as above; settings: H2170, combination with GDC-0449 (Vismodegib) or BMS-833923, 96 hours
Ba/F3 MPL W515L cells = test: Cell proliferation assay (CCK8); settings: read-out: IC50, inhibition of proliferation; Ba/F3 MPLW515L, 48h
Ba/F3 JAK2 V617F cells = test: Cell proliferation assay (CCK8); settings: read-out: IC50, inhibition of proliferation; Ba/F3 JAK2V617F, 48h
A549 cells [3] = test: QRT-PCR assay for stem cell transcription factors; settings: 72 hours
H1650 cells = test: QRT-PCR assay for stem cell transcription factors; settings: 72 hours
H1650 SP cells = test: Tube formation assay with stem-like side population NSCLC cells; settings: on Matrigel, overnight
[4] = test system: NCI-H1650 side population (SP) stem-like cells; test: Sphere formation assay with stem-like side population NSCLC cells; settings: H1650 (EGFR mutation), 0.5-5.0 μM, Day 10
[5] = test system: A549 side population (SP) stem-like cells; test: as above; settings: A549 (KRAS mutation), 0.5-5.0 μM, Day 10
[6] = test system: H1650 cells co-cultured with primary CAFs from human lung cancer; test: Co-culture assay with cancer cells and cancer associated fibroblasts
SET-2 cells = test: Cell proliferation assay (CCK8); settings: Ruxolitinib-resistant SET-2
HEL 92.1.7 cells [7] = test: Cell cycle assay (flow cytometry); settings: 12 hours of treatment at 10 μM

IC50 (Ba/F3 MPL W515L cells) [µM] | IC50 (Ba/F3 JAK2 V617F cells) [µM] | Compound | growth of the HEL 92.1.7 cell line (HEL 92.1.7 cells [1]) | cell viability, combination with Smoothened inhibitors (A549 cells [2]) | cell viability, combination with Smoothened inhibitors (NCI-H2170 cells) | expression of Gli1 (mRNA) (A549 cells [3]) | expression of Sox2 (mRNA) (A549 cells [3]) | expression of Yap1 (mRNA) (A549 cells [3]) | expression of Gli1 (mRNA) (H1650 cells) | expression of Sox2 (mRNA) (H1650 cells) | expression of Yap1 (mRNA) (H1650 cells) | tubule formation by H1650 SP cells (H1650 SP cells) | growth of stem-like cancer cells (sphere formation) [4] | growth of stem-like cancer cells (sphere formation) [5] | growth of H1650 cells co-cultured with primary CAFs ([6]; 1:1 co-culture) | effects on CAFs ([6]; 1:1 co-culture with H1650 cells) | growth of a SET-2 cell line generated to be Ruxolitinib-resistant (SET-2 cells) | cell cycle (HEL 92.1.7 cells [7])
 |  | O=C(NO)c1cccc2c1CC1(CC2)CCN(Cc2ccc(Cl)cc2)C1=O (stereo not drawn) | did not |  |  |  |  |  |  |  |  |  |  |  |  |  |  | 
1 to 10 | 1 to 10 | CC1(C)c2cccc(C(=O)NO)c2CN1c1nc2ccc(C(F)(F)F)cc2[nH]1 |  | decreased cell viability | decreased cell viability | decreased expression | decreased expression | decreased expression | decreased expression | decreased expression | decreased expression |  |  |  |  |  |  | 
 |  | O=C(NO)c1cccc2c1CC1(CC2)CCN(c2cccc(C(F)(F)F)c2)C1=O (stereo not drawn) |  |  |  |  |  |  |  |  |  | did not | did not | did not |  |  |  | 
 |  | CC1(C)c2cccc(C(=O)NO)c2CN1c1cnc(C(F)(F)F)cn1 | inhibited the growth | decreased cell viability | decreased cell viability | decreased expression | decreased expression | decreased expression | decreased expression | decreased expression | decreased expression | inhibited tubule formation | prevented growth | prevented growth | inhibit the growth | minimal effects | inhibited the growth | induced G1 cell cycle arrest
